Values quoted from earlier work in publication PMC6829319.

Sequences of proteins named here, by UniProt entry; tags and fusion partners are left off. A change or cut given only in a name is not applied to a line headed by its entry. Residues count along the entry.
UniProt P0A9D4: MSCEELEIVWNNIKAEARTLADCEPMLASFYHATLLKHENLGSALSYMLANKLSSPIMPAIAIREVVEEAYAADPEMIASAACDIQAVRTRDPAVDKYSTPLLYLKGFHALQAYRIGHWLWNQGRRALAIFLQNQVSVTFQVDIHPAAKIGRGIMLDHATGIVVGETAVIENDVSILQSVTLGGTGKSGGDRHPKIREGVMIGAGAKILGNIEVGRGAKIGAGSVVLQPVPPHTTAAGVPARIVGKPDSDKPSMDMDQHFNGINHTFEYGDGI
UniProt P0ABK5, 2-323: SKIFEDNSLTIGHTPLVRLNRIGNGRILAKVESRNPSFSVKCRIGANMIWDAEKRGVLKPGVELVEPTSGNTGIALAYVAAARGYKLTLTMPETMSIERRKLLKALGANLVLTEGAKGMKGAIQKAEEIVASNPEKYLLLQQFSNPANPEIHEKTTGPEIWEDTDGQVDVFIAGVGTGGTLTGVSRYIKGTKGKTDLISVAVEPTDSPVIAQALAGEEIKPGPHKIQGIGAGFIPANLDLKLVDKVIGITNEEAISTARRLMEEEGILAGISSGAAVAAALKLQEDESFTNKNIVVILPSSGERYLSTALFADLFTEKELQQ

Target: CysE (serine acetyltransferase) (Escherichia coli) (UniProt P0A9D4)

CysK (from UniProt P0ABK5)
Kd: 5 nM
